Test results from PMC5476196, “Uptake, biotransformation and elimination of selected pharmaceuticals in a freshwater invertebrate measured using liquid chromatography tandem mass spectrometry” (Chemosphere, 2017).

Tested on: Gammarus pulex
Experiment: Biotransformation products in G. pulex after exposure to propranolol, carbamazepine or diazepam (LC-MS/MS)

With `CC(C)NCC(O)COc1ccc(OS(=O)(=O)O)c2ccccc12` (centres unmarked) the “mean concentration of biotransformation product at 48 h (end of the uptake phase)” value (after exposure to the precursor compound (propranolol 10 μg L^−1, diazepam 1 μg L^−1)) was 75 ± 17 ng g^−1 dw and the “mean concentration of biotransformation product at 96 h” value (propranolol exposure, end of elimination phase) was 84 ± 4 ng g^−1 dw.
